Measured values from patent US7829063B2, “Development of molecular imaging probes for carbonic anhydrase-IX using click chemistry” (Siemens Medical Solutions USA, Inc., priority 2007, dated 2010).

biological target: CA-IX (Homo sapiens, UniProt Q16790); experiment: Binding affinity (Kd) determination for CA-IX inhibitors, DNSA fluorescence competition assay, Scatchard plots; conditions: read-out: Kd (nM) CA-IX; Table 3

| SMILES | Kd [nM] |
| --- | --- |
| NS(=O)(=O)c1nc2ccc(OCc3cn(CC(=O)NC(C[S+]([O-])Cc4cccc(OCCF)c4)C(=O)O)nn3)cc2s1 (single isomer, unassigned) [VM2-128B] | 2.5 |
| NS(=O)(=O)c1nc2ccc(OCc3cn(CC(=O)N[C@H](CSCc4cccc(OCc5cn(C(CO)CF)nn5)c4)C(=O)O)nn3)cc2s1 (some centres unmarked) | 5 |
| COC(=O)[C@H](COCc1cccc(OCCF)c1)NC(=O)Cn1cc(COc2ccc3nc(S(N)(=O)=O)sc3c2)nn1 | 11 |
| NS(=O)(=O)c1nc2ccc(OCc3cn(CC(=O)N[C@@H](COCc4cccc(OCC(O)CF)c4)C(=O)O)nn3)cc2s1 (some centres unmarked) | 5 |

Further lines, results first:

| Kd [nM] | SMILES |
| --- | --- |
| 10 | COC(=O)[C@H](CSCc1cccc(OCCF)c1)NC(=O)Cn1cc(COc2ccc3nc(S(N)(=O)=O)sc3c2)nn1 |
| 10 | COC(=O)[C@@H](CSCc1cccc(OCCN=[N+]=[N-])c1)NC(=O)Cn1cc(COc2ccc3nc(S(N)(=O)=O)sc3c2)nn1 |
| 5 | NS(=O)(=O)c1nc2ccc(OCc3cn(CC(=O)N[C@@H](COCc4cccc(OCCF)c4)C(=O)O)nn3)cc2s1 |
| 5 | NS(=O)(=O)c1nc2ccc(OCc3cn(CC(=O)NC(C[S+]([O-])Cc4cccc(OCCF)c4)C(=O)O)nn3)cc2s1 (single isomer, unassigned) [VM2-128C] |
